The assay has as its target 5-hydroxytryptamine receptor 1A (Rattus norvegicus, UniProt P19327). Briefly: Binding affinity against 5-hydroxytryptamine 1A receptor of rat hippocampal tissue with [3H]8-OH-DPAT. It is filed as tissue-based, Hippocampus.

By UniProt entry, the sequences of proteins in these tests, tags left out.
UniProt P19327, whole entry: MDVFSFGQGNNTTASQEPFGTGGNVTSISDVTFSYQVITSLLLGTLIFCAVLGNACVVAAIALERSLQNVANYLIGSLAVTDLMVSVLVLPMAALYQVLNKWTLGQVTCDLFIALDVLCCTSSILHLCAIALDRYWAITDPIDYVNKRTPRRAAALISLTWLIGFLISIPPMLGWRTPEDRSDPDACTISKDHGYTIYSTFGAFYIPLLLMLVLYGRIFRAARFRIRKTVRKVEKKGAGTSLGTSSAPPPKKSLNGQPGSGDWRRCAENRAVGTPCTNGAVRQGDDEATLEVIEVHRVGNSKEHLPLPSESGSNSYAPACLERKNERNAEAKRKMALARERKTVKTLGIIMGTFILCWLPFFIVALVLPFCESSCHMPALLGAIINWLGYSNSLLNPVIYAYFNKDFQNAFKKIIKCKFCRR

The structures appear in SMILES notation.

As a reminder, the IC50 is the point on the concentration scale where inhibition reaches its midpoint. Compound `O=C1CC2(CCCC2)CC(=O)N1CCCCN1CCN(c2nsc3ccccc23)CC1` [TIOSPIRONE] returned an IC50 of 2.85 nM.

These data come from ChEMBL document CHEMBL1125892 (J Med Chem, 1991).
